US20120164129

What was measured:
[1] = target: protease-activated receptor 1 (PAR 1) (UniProt P25116)
Protein C = Protein C (UniProt P04070)
Fibrinogen = Fibrinogen (UniProt P02671)

## E. coli E-WE thrombin prepared by activation with ecarin only from E-WE prethrombin-2 with two ecarin sites
[1]
  kcat/Km, PAR 1; E. coli E-WE Two ecarin sites Lot 1; activation: Ecarin Only: 9900 M⁻¹ s⁻¹
Protein C
  kcat/Km, protein C activation (50 nM TM); E. coli E-WE Two ecarin sites Lot 1; activation: Ecarin Only: 26600 M⁻¹ s⁻¹
Fibrinogen
  kcat/Km, fibrinogen (FpA); E. coli E-WE Two ecarin sites Lot 1; activation: Ecarin Only: 270 M⁻¹ s⁻¹

## E. coli-derived recombinant E-WE thrombin (W215A/E217A), prepared from E-WE prethrombin-2 expressed in E. coli
[1]
  Catalytic activity (kcat/Km), PAR 1; WE thrombin mutant expressed in E. coli: 10000 M⁻¹ s⁻¹
  kcat/Km, PAR 1; E. coli E-WE (Lot 1) FZ; activation: Prothrombinase + Ecarin: 10000 M⁻¹ s⁻¹
  kcat/Km, PAR 1; E. coli E-WE (Lot 2); activation: Prothrombinase Ecarin, AC: 4000 M⁻¹ s⁻¹
  kcat/Km, PAR 1; E. coli E-WE (Lot 3); activation: Ecarin, AC: 96000 M⁻¹ s⁻¹
  kcat/Km, PAR 1; E. coli E-WE (Lot 4); activation: Prothrombinase, Ecarin, AC: 32000 M⁻¹ s⁻¹
  kcat/Km, PAR 1; E. coli E-WE (Lot 5); activation: Prothrombinase + Ecarin: 9400 M⁻¹ s⁻¹
  kcat/Km, PAR 1; E. coli E-WE (Lot 6, FZ); activation: Prothrombinase + Ecarin: 8500 M⁻¹ s⁻¹
Protein C
  Catalytic activity (kcat/Km), Protein C; WE thrombin mutant expressed in E. coli: 22000 M⁻¹ s⁻¹
  kcat/Km, protein C activation (50 nM TM); E. coli E-WE (Lot 1) FZ; activation: Prothrombinase + Ecarin: 9260 M⁻¹ s⁻¹
  kcat/Km, protein C activation (50 nM TM); E. coli E-WE (Lot 2); activation: Prothrombinase Ecarin, AC: 25000 M⁻¹ s⁻¹
  kcat/Km, protein C activation (50 nM TM); E. coli E-WE (Lot 3); activation: Ecarin, AC: 14000 M⁻¹ s⁻¹
  kcat/Km, protein C activation (50 nM TM); E. coli E-WE (Lot 4); activation: Prothrombinase, Ecarin, AC: 16000 M⁻¹ s⁻¹
  kcat/Km, protein C activation (50 nM TM); E. coli E-WE (Lot 5); activation: Prothrombinase + Ecarin: 3700 M⁻¹ s⁻¹
  kcat/Km, protein C activation (50 nM TM); E. coli E-WE (Lot 6, FZ); activation: Prothrombinase + Ecarin: 24600 M⁻¹ s⁻¹
Fibrinogen
  Catalytic activity (kcat/Km), fibrinogen; WE thrombin mutant expressed in E. coli: 160 M⁻¹ s⁻¹
  kcat/Km, fibrinogen (FpA); E. coli E-WE (Lot 1) FZ; activation: Prothrombinase + Ecarin: 161 M⁻¹ s⁻¹
  kcat/Km, fibrinogen (FpA); E. coli E-WE (Lot 2); activation: Prothrombinase Ecarin, AC: 130 M⁻¹ s⁻¹
  kcat/Km, fibrinogen (FpA); E. coli E-WE (Lot 3); activation: Ecarin, AC: 1100 M⁻¹ s⁻¹
  kcat/Km, fibrinogen (FpA); E. coli E-WE (Lot 4); activation: Prothrombinase, Ecarin, AC: 190 M⁻¹ s⁻¹
  kcat/Km, fibrinogen (FpA); E. coli E-WE (Lot 5); activation: Prothrombinase + Ecarin: 170 M⁻¹ s⁻¹
  kcat/Km, fibrinogen (FpA); E. coli E-WE (Lot 6, FZ); activation: Prothrombinase + Ecarin: 184 M⁻¹ s⁻¹

## Thrombin mutant Δ146-149e expressed in BHK cells
[1]
  kcat/Km, PAR 1; BHK Δ146-149e; activation: Ecarin: 120000 M⁻¹ s⁻¹
Protein C
  kcat/Km, protein C activation (50 nM TM); BHK Δ146-149e; activation: Ecarin: 13000 M⁻¹ s⁻¹
Fibrinogen
  kcat/Km, fibrinogen (FpA); BHK Δ146-149e; activation: Ecarin: 71000 M⁻¹ s⁻¹

## Thrombin mutant Δ146-149e expressed in E. coli
[1]
  kcat/Km, PAR 1; E. coli Δ146-149e; activation: Prothrombinase, Ecarin: 130000 M⁻¹ s⁻¹
Protein C
  kcat/Km, protein C activation (50 nM TM); E. coli Δ146-149e; activation: Prothrombinase, Ecarin: 35000 M⁻¹ s⁻¹
Fibrinogen
  kcat/Km, fibrinogen (FpA); E. coli Δ146-149e; activation: Prothrombinase, Ecarin: 110000 M⁻¹ s⁻¹

## WE thrombin (W215A/E217A) prepared from WE prethrombin-1 expressed in BHK cells
[1]
  kcat/Km, PAR 1; BHK WE; activation: Prothrombinase, Ecarin: 17000 M⁻¹ s⁻¹
Protein C
  kcat/Km, protein C activation (50 nM TM); BHK WE; activation: Prothrombinase, Ecarin: 4100 M⁻¹ s⁻¹
Fibrinogen
  kcat/Km, fibrinogen (FpA); BHK WE; activation: Prothrombinase, Ecarin: 5200 M⁻¹ s⁻¹

## Wild type human thrombin expressed in BHK cells
[1]
  kcat/Km, PAR 1; BHK WT; activation: Prothrombinase: 2.6e+07 M⁻¹ s⁻¹
Protein C
  kcat/Km, protein C activation (50 nM TM); BHK WT; activation: Prothrombinase: 220000 M⁻¹ s⁻¹
Fibrinogen
  kcat/Km, fibrinogen (FpA); BHK WT; activation: Prothrombinase: 1.7e+07 M⁻¹ s⁻¹

## Wild type human thrombin expressed in E. coli
[1]
  kcat/Km, PAR 1; E. coli WT; activation: Ecarin: 2.4e+07 M⁻¹ s⁻¹
Protein C
  kcat/Km, protein C activation (50 nM TM); E. coli WT; activation: Ecarin: 220000 M⁻¹ s⁻¹
Fibrinogen
  kcat/Km, fibrinogen (FpA); E. coli WT; activation: Ecarin: 9.6e+06 M⁻¹ s⁻¹
